The chains behind the UniProt entries cited, without tags or fusion partners.
UniProt Q04609, whole entry: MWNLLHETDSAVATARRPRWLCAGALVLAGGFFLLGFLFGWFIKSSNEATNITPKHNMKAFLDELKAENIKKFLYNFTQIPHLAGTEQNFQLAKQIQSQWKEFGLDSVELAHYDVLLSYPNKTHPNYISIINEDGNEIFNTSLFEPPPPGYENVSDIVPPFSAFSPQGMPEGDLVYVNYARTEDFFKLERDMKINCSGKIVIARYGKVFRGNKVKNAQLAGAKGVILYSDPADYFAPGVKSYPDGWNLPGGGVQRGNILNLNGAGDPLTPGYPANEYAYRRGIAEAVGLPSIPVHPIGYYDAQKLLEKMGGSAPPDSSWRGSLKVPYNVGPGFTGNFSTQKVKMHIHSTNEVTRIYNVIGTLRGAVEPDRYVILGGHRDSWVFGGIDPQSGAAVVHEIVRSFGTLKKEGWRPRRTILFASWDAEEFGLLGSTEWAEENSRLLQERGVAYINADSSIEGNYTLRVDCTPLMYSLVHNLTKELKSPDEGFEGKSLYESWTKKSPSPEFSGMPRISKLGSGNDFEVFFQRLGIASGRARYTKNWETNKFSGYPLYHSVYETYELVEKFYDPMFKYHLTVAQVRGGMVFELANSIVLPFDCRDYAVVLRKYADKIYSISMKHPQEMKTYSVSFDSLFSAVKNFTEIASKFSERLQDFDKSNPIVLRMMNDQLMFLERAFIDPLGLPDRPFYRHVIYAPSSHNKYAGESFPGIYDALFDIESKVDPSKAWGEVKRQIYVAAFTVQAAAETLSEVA

According to patent publication US20250213705A1, “PSMA TARGETING LIGANDS AND METHODS OF USE” (Bright Peak Therapeutics AG, priority 2023, published 2025):

Molecular target: human FOLH1 (Homo sapiens (Human), UniProt Q04609)
Assay: SPR analysis of binding kinetics to biotinylated FOLH1 (Biacore 8K)
Conditions: ligand PSMA, dissociation rate
Protocol: The interaction of PSMA-binding variants with human FOLH1 was measured with Surface Plasmon Resonance (SPR) technology. Biotinylated FOLH1 was captured at a concentration of 30 μg/mL onto a Streptavidin chip.
Binding kinetics of the analytes were measured with a Biacore 8K instrument in two-fold serial dilutions starting at 500 nM down to 1.95 nM in single cycle kinetic measurements. After each cycle, needles were washed with 50% DMSO. To measure the association to the FOLH1 protein, the samples were injected with a flow rate of 30 μL/min for 90 s, followed by 1200 s buffer only to detect the dissociation. The used running buffer was 1×PBS with 0.05% Tween20 and 2% DMSO. The relative response units (RU, Y-axis) are plotted against time (s, X-axis) and analyzed in a kinetic 1:1 binding model.
In a different setup, biotinylated FOLH1 was captured at a concentration of 0.8 μg/mL and the running buffer was 1×PBS with 0.05% Tween20.

SMILES: CC(=O)NCCOCCOCCOCCC(=O)NC[C@H]1CC[C@H](C(=O)N[C@@H](Cc2ccc3ccccc3c2)C(=O)NCCCC[C@H](NC(=O)N[C@@H](CCC(=O)O)C(=O)O)C(=O)O)CC1 [Compound 8]
- koff: 0.000104 s⁻¹

SMILES: CC(=O)NCCOCCOCCOCCC(=O)NC[C@H]1CC[C@H](C(=O)N[C@@H](Cc2cccc(C(=O)O)c2)C(=O)NCCCC[C@H](NC(=O)N[C@@H](CCC(=O)O)C(=O)O)C(=O)O)CC1 [Compound 10]
- koff: 0.000262 s⁻¹
